# scFv variants of Ab-14 (light chain) against a SARS-CoV-2 spike peptide

From the AlphaSeq antibody data of Li et al. 2023 (doi:10.1038/s41467-023-39022-2), copy in the FLAb collection.

Target peptide (SARS-CoV-2 spike, HR2 region): PDVDLGDISGINAS

The variants keep the heavy chain, the linker and the frameworks of Ab-14 (scFv order VH, a (GGGGS)3 linker, VL).
VH: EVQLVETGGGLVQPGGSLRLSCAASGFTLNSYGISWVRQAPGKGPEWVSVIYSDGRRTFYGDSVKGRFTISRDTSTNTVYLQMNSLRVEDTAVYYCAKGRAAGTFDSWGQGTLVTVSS
VL: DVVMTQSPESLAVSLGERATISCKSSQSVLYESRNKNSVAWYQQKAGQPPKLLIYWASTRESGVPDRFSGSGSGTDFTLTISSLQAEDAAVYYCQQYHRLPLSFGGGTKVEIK

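The variants were designed computationally from a first round of random CDR variants and then made and measured. Their group label is 14L_GP_Gen (GP: Gaussian process model; Gen: genetic algorithm; a sequence that several methods proposed may carry one label only). In AlphaSeq, yeast of one mating type display the scFv and yeast of the other type display the target. After mating in shaken culture at 30 °C for 16 h, diploids were selected and their barcode pairs sequenced. Scores were corrected for input abundance and mapped to Kd with protein pairs of known affinity run in the same pool. Each pool was mated in six replicate cultures.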

Variants are written as CDR1, CDR2 and CDR3 of the light chain (limits as in the source). Parent: KSSQSVLYESRNKNSVA, WASTRES, QQYHRLPLS. Affinities are written as log10 Kd with Kd in nM; a lower number is a better binder. The range of this assay differs from that of the first round, and the authors advise against merging the two. As a blank, each scFv also met three strains without target: over all light chain designs, 4% of these pairings were detected, typically at 2.64 and seldom below 1.59. Also given: how often the same scFv was detected with the empty control strains, with their mean in brackets. The authors averaged sequences with at least three values out of six and counted those with two or fewer as poor binders. The parent sequence was in this pool as ten entries: three were never detected, three once, and four in most replicates, with averages from 0.34 to 2.37.

CDR-L1	CDR-L2	CDR-L3	replicates, log10 nM	control signals
KLKQSVPYESRNKNSVA	NASTRES	QQYHRLPLS	-0.01 / -0.26 / 0.16 / -0.02 / 0.26 / -0.34	0/18
KLSQSWLYESRMKNSVA	NASTRED	QQYHRLPLS	0.12 / -0.04 / -0.11 / 0.01 / -0.11 / 0.15	3/18 (2.76)
KVSPSNLYESRNKNSVA	EASTRES	QQYHRLPLS	-0.14 / -0.14 / -0.37 / -0.40 / -0.20 / -0.14	0/18
KLEQSMLYESRNKNSVA	NASQRES	QQYHRLPLS	-0.19 / -0.10 / -0.27 / -0.23 / -0.30 / 0.02	5/18 (2.93)
KLSQSDLYESRNKNSVA	EASTREQ	QQYHRLPLS	-0.29 / -0.26 / -0.20 / -0.33 / -0.09 / -0.23	0/18
KLEGSVLYESRNKNSVA	NASTRES	QQYHRLPLS	0.01 / -0.19 / -0.31 / -0.36 / -0.28 / -0.08	2/18 (1.96)
KFSQSVLYEERNKNSVA	NASQRES	QQYHRLPLS	-0.03 / -0.24 / -0.27 / -0.29 / -0.34 / 0.09	1/18 (1.93)
KLSQSVLYESRNKNSVA	EASTREY	QQYHRLPLS	-0.11 / -0.02 / 0.01 / -0.15 / -0.10 / -0.18	0/18
KLSQSYLYESRNKNSVA	NASLRES	QQYHRLPLS	0.69 / 0.52 / 0.53 / 0.58 / 0.58 / 0.57	1/18 (2.15)
KLQQSVLYESRNKNSVA	NASTRED	QQYHRLPLS	0.85 / 0.33 / 0.17 / 0.68 / -0.10 / 0.78	0/18
KFSQSYLYESRNKNSVA	NASTRES	QQYHRLPLM	-0.02 / -0.15 / -0.09 / -0.10 / -0.22 / 0.03	1/18 (4.80)
KISQSVLYESRNKNAVA	NASTRMS	QQYHRLPLS	0.13 / 0.13 / -0.02 / -0.04 / -0.06 / 0.16	0/18
KLSQSDLYESRNKNSVA	NASQRES	QDYHRLPLS	-0.04 / 0.03 / -0.01 / -0.27 / -0.25 / 0.06	2/18 (2.12)
KLSQSVEYESRNKNSVA	EASTRCS	QQYHRLPLS	0.50 / 0.26 / -0.28 / -0.06 / -0.46 / 0.07	0/18
KLSQSDLYESRNKNSVA	GASTRED	QQYHRLPLS	1.07 / 1.50 / 1.07 / 0.78 / 0.81 / 1.22	3/18 (2.62)
KVVQSVLYESRNKNSVA	DASTRES	QQYHRLPLS	-0.23 / -0.26 / -0.30 / -0.41 / -0.31 / -0.12	2/18 (2.84)
KLSQSELYESRNKNSVA	NASTRLM	QQYHRLPLS	0.49 / 0.76 / 0.55 / 0.17 / 0.57 / 0.49	1/18 (2.37)
KLQQSWLYESRNKNSVA	NASTREM	QQYHRLPLS	0.04 / 0.00 / -0.11 / -0.13 / 0.12 / 0.01	1/18 (2.46)
KLQQSDLYESRNKNSVA	GASQRES	QQYHRLPLS	1.28 / 1.02 / 0.99 / 1.10 / 0.93 / 1.39	0/18
KLSQSVDYESRNKNSVA	NASTRES	QQYHRLPLS	-0.05 / -0.19 / -0.24 / -0.47 / -0.39 / -0.08	1/18 (2.14)
CLSQSWLYESRNKNSVA	NASTRES	QQYHRLPLS	-0.31 / -0.47 / -0.48 / -0.68 / -0.51 / -0.37	0/18
KLSQSQLYESRMKNSVA	NASQRLS	QQYHRLPLS	1.51 / 1.45 / 0.85 / 1.28 / 1.29 / 2.02	1/18 (2.61)
KLSQSFLYESRNKNSVA	NASQRES	QDYHRLPLS	-0.30 / -0.29 / -0.32 / -0.66 / -0.71 / -0.27	1/18 (2.72)
KLSFSDLYESRNKNSVA	EASTRES	QQYHRLPLS	0.30 / -0.53 / -0.79 / -0.70 / -0.50 / -0.16	1/18 (1.48)
KVSQSWLYESRNKNSVA	GASTRES	QQYHRLPLS	0.26 / 0.01 / -0.17 / -0.19 / -0.03 / 0.10	2/18 (2.27)
KLMGSMLYESRNKNSVA	NASTRES	QQYHRLPLS	-0.27 / -0.41 / -0.36 / -0.44 / -0.24 / -0.15	1/18 (2.16)
KLSESVLYESRNKNNVA	DASTRES	QQYHRLPLS	-0.29 / -0.49 / -0.55 / -0.56 / -0.57 / -0.35	0/18
KLSQSKLYESRNKNNVA	NASTRMS	QQYHRLPLS	-0.24 / -0.36 / -0.69 / -0.56 / -0.47 / -0.31	3/18 (3.66)
KLSQSVLYEERNKNSVA	NASQREQ	QQYHRLPLS	0.26 / 0.36 / 0.51 / 0.42 / 0.39 / 0.51	0/18
KLSQSVLYESRNKNSVA	EASQRMS	QQYHRLPLS	-0.48 / -0.32 / -0.59 / -0.54 / -0.67 / -0.52	0/18
KMSQSVLYESRNKNSVA	EASQRES	QQYHRLPLS	-0.17 / -0.30 / -0.39 / -0.60 / -0.49 / -0.19	0/18
KLSQSVLYESRNKNSVA	EASTRES	QDYHRLPLS	0.21 / -0.01 / -0.09 / 0.01 / -0.16 / 0.09	1/18 (3.64)
KMQQSELYESRNKNSVA	NASTRES	QQYHRLPLS	0.09 / -0.01 / -0.14 / -0.11 / 0.12 / 0.15	0/18
KVSQSDPYESRNKNSVA	NASTRES	QQYHRLPLS	0.10 / 0.24 / 0.23 / 0.10 / 0.11 / 0.52	1/18 (3.00)

Picked from the list: the 3 lowest averages where every replicate gave a value.

CDR-L1,CDR-L2,CDR-L3,"replicates, log10 nM",control signals
KLSQSVLYESRNKNSVA,EASQRMS,QQYHRLPLS,-0.48 / -0.32 / -0.59 / -0.54 / -0.67 / -0.52,0/18
CLSQSWLYESRNKNSVA,NASTRES,QQYHRLPLS,-0.31 / -0.47 / -0.48 / -0.68 / -0.51 / -0.37,0/18
KLSESVLYESRNKNNVA,DASTRES,QQYHRLPLS,-0.29 / -0.49 / -0.55 / -0.56 / -0.57 / -0.35,0/18